# According to IntAct's records for PubMed 20713710:
# B1: Myc proto-oncogene protein (Homo sapiens), P01106 (parent)
# chain: MDFFRVVENQQPPATMPLNVSFTNRNYDLDYDSVQPYFYCDEEENFYQQQQQSELQPPAPSEDIWKKFELLPTPPLSPSRRSGLCSPSYVAVTPFSLRGDNDGGGGSFSTADQLEMVTELLGGDMVNQSFICDPDDETFIKNIIIQDCMWSGFSAAAKLVSEKLASYQAARKDSGSPNPARGHSVCSTSSLYLQDLSAAASECIDPSVVFPYPLNDSSSPKSCASQDSSAFSPSSDSLLSSTESSPQGSPEPLVLHEETPPTTSSDSEEEQEDEEEIDVVSVEKRQAPGKRSESGSPSAGGHSKPPHSPLVLKRCHVSTHQHNYAAPPSTRKDYPAAKRVKLDSVRVLRQISNNRKCTSPRSSDTEENVKRRTHNVLERQRRNELKRSFFALRDQIPELENNEKAPKVVILKKATAYILSVQAEEQKLISEEDLLRKRREQLKHKLEQLRNSCA
# Variants of: B1
# Conditions: with p49841-2 GSK3B
row,Variant,effect of a mutation on the interaction
1,T73D;S77A,increasing interaction
2,S77A,decreasing interaction
3,T73D,increasing interaction
4,T73I,decreasing interaction
5,T73A;S77A,decreasing interaction
6,T73I;S77D,decreasing interaction
